Measured affinities in a library of Ab-14 light chain variants

Antigen: PDVDLGDISGINAS, a 14-residue peptide of the SARS-CoV-2 spike HR2 region.

Parent scFv Ab-14: VH joined to VL by the linker GGGGSGGGGSGGGGS. Changes lie in the light chain CDRs alone.
VH: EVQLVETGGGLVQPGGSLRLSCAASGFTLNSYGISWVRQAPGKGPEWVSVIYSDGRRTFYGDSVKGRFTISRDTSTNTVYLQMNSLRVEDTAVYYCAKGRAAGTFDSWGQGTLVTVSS
VL: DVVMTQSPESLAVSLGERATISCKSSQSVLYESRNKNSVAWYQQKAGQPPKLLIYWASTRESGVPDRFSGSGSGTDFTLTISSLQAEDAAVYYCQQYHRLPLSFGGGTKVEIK

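Phage display of a naive human antibody library on the peptide gave the parent. This is the validation round: designs drawn from the data on random variants, tested in the same kind of assay. Several design methods are mixed in this list. AlphaSeq pools MATa yeast showing the antibodies with MATalpha yeast showing the peptide. The frequency of each diploid, read from paired DNA barcodes, reflects how well the two displayed proteins bind. Read counts were normalised to the haploid input and turned into Kd by a linear fit to BCL2-family pairs of known affinity, for each replicate. The assay was run in six technical replicates.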

Variants are written as CDR1, CDR2 and CDR3 of the light chain (limits as in the source). Parent: KSSQSVLYESRNKNSVA, WASTRES, QQYHRLPLS. Values are apparent Kd, the geometric mean of the replicates that gave a signal; lower means stronger binding. A pair that was not seen in any replicate is written "not detected"; this usually means weak binding, but a binder can also be missed. Empty control strains, which show no peptide, gave a signal in 4% of pairings with all light chain designs; the median was 430 nM and 95% of these signals were weaker than 38 nM. No background was subtracted. Values of this round are not directly comparable with the first-round values of the same sequences. In the paper, a design with two or fewer of six values counts as a poor binder.

Kd,detected,CDR-L1,CDR-L2,CDR-L3
2.4 nM,6 of 6,HLSLPWQLGHPSTNAVA,NMSTLMT,QQYSRLPLS
560 pM,6 of 6,KIEQSMLYESRNKNSVA,NASTREV,QQYHRLPLS
940 pM,4 of 6,HTQHLGFGDPYAWNNVA,DVSQVCS,QQYARLPLT
680 pM,6 of 6,KSMQSALYESRNSNSVA,DASTRES,QQYHRLPLS
1.0 nM,6 of 6,KFQWSNLYESRNKNSVA,NASTRES,QQYWRLPLS
not detected,0 of 6,KSSQSVLYEDRNGNSVA,WASTRES,QQYHRLPLS
630 pM,6 of 6,KLSQSTLYESRNKNSVA,NASTREE,QQYHRLPLS
not detected,0 of 6,KSSQSVLYEWENKNSVA,WCSTRES,QTYHRLPLS
940 pM,6 of 6,KLEPFEEYESRNKNSVA,SASTRES,QQYHRLPLS
6.5 nM,6 of 6,KLEQSVEMESRWKNSVA,NASTRES,QQYHRLPLS
5.8 nM,6 of 6,KLMEQFGHSMDHMNNIA,HVDMLAQ,QQYMHLPLI
2.3 nM,6 of 6,KITQAVNYLSRVMNSVA,DNSTRES,QQYFRLPLS
24 nM,6 of 6,KFNMEVGGQNTNKYAIA,AAHQLEY,QTYHRLPLS
2.9 nM,6 of 6,KSSQSVDYESRNKNSVA,EASTREQ,QQYHRLPLS
2.7 nM,6 of 6,KLEQSQLYESRNKNSVA,NASLRES,QQYHRLPLS
1.1 nM,6 of 6,SLYDATGMESRNKNPIA,DVSTRPS,QQYDRLPLS
not detected,0 of 6,KHSQSFLYISRQQNSVA,WASTRES,QQYHRLPLD
680 pM,6 of 6,KMPQSVLYESRNKNSVA,NASQRES,QQYHRLPLS
3.7 nM,6 of 6,KLSQSVLYESRNKNNVA,NASTREQ,QQYHRLPLS
710 pM,6 of 6,KLSQSVPYESRNKNSVA,EASTREE,QQYHRLPLS
1.3 nM,6 of 6,KSSQSVLYESRNHNSVA,NASTRES,QQYHRLPLS
1.7 nM,6 of 6,SISGFMKSLAAHHNSVA,DMTNRES,QQYDRLPLS
2.7 nM,6 of 6,KLYQSVGTLSHNKQSIA,DMERRED,QQYHRLPLS
110 nM,1 of 6,KVSEFMKGLMMRTDSIA,DNETRGA,QQYDRLPLS
65 nM,6 of 6,MISQLYNMGSFAINSVA,QASQRCE,QQYDRLPLL
2.2 nM,6 of 6,KLWQDMYNGRNQANAVA,EGNILAN,QQYARLPFS
1.5 nM,6 of 6,KLSQSYLYESGNKNSVA,HASTRES,QQYHRLPLS
360 pM,6 of 6,KSSQSELYESRNKNSVA,GASTRES,QQYHRLTLS
1.1 nM,6 of 6,KQSQSVLYESENKNSVA,DASTRES,QQYHRLPLS
720 pM,6 of 6,KLSMSWLYESRNKNSVA,GASTRES,QQYHRLPLS
16 nM,6 of 6,KISMLYNYESTNKNSIA,EMTTRES,QHYHRLPLS
12 nM,6 of 6,KLAQGIYEPVRKSNNIA,EASHVCD,QQYERLPLE
1.1 nM,6 of 6,KLSQSNGYESRLKNNVA,NASTRLE,QQYHRLPLS
2.7 nM,6 of 6,HSSPSVFYESRNKNSVA,NASTRES,QQYHRLPLS
6.2 nM,6 of 6,TISQVMNTLTRHGNNVA,DLQEREQ,QQYFRLPLS
5.3 nM,6 of 6,QLGQTIWADIMNKKSIA,AEETLID,QQYNRLPLS
14 nM,6 of 6,TVKMELEEFAQDKHSVA,EAVERES,QQYHRLPII
6.6 nM,6 of 6,MISEVMNTLTRHGNNVA,DLTERED,QQYFRLPLS
not detected,0 of 6,TISELYNQALGTRNNVA,NNQTRED,QQYARLPLS
3.1 nM,6 of 6,ILQQSMLYESRWWNSVA,DASVRED,QQYHRLPLS
2.1 nM,6 of 6,KSSQSYLYESRNENSVA,EASTREQ,QQYHRLPLS
990 pM,6 of 6,KLQQSVLYESRNKNSVA,NASTRVS,QQYHRLPLS
16 nM,6 of 6,KWSWSVDLESRNDNSVA,DASTRED,QQYHRLPLS
130 nM,6 of 6,TISGVMMQLSHSKNNVA,EVSMRLD,QQYFRLPLE
2.1 nM,6 of 6,KLSIAGLHQSIDKKSIA,ERSTREN,QQYHRLPLS
510 pM,6 of 6,KLSDVTEYESRNKNNVA,DLSTRGS,QDYHRLPLS
not detected,0 of 6,MLTRFNLQNQGNSNNIA,DTNQVQE,QQYFRLPFA
6.3 nM,6 of 6,TISTSAQQESHNKNSVA,DLNVRGS,QQYDRLPLS
250 nM,3 of 6,KSSLSVLYESRNKNSVA,WASTRES,QQYHRLPLS
830 pM,6 of 6,KLWESVLGESRNQNAVA,SASTREL,QQYHRLPLS
not detected,0 of 6,SSEQSVLYESRNKNSVA,WASTRES,QQYHRLPLS
18 nM,6 of 6,MVNGIMDHLSKQHNNVA,ETETRNS,QQYDRLPLS
not detected,0 of 6,KSSQSDLYESRNKNSVA,SATTREV,QQYHRPPLS
1.7 nM,6 of 6,KLQQSDLYESRNKNSVA,GASTRLS,QQYHRLPLS
860 pM,6 of 6,KVSQSELYESRNKNSVA,NASTRES,QSYHRLPLS
850 pM,6 of 6,KLSQSVLYESRMKNNVA,EASTRES,QQYHRLPLS
6.3 nM,6 of 6,KLVGVDDNDRNPSHNIA,DVSMLDN,QQYHRLPLD
11 nM,6 of 6,MISQVMNTLTRHGNNVA,DLTERED,QQYFRLPLS
1.3 nM,6 of 6,KFSQQMLYESRNSNNVA,HASHRES,QQYHRLPLS
44 nM,6 of 6,KLSQSVLYESRNKNSVA,WASTRES,QQYHRMPLL
760 nM,6 of 6,KLGTTVGYEQRNKSRVA,DNSTRES,QQYDRLPLS
2.7 nM,6 of 6,RVSSNLMAGEIHYNAIA,NTKVLEY,QQYMRLPLG
4.7 nM,6 of 6,NLSYRQGEPTNMVNSVA,QTSLRAH,QQYHHLPLC
1.4 nM,6 of 6,NFGQKMALYTGDRYSIA,DATVKAD,QQYSRLPLT
490 pM,6 of 6,KFSQMDLYESRNGNNVA,DASTRSS,QQYHRLPLS
3.1 nM,6 of 6,HLEQSSPYEQRNKNSVA,NASLRCS,QQYHRLPLS
11 nM,5 of 6,IMSQSVLGESRNINSVA,QTSEREY,QQYDRLPLS
970 pM,6 of 6,KSSQSWLYESRNKNSVA,NASQREQ,QQYHRLPLS
910 pM,6 of 6,KLQQSEEYESRNKNSVA,SASTRES,QQYHRLPLS
7.3 nM,6 of 6,ALSINGPQQHGMNDSIA,HSDRREA,QQYYRLPLA
not detected,0 of 6,KLSISYLFLSQEKNSIA,ENSTRES,QHYHRLPLS
not detected,0 of 6,KCSQSVLNESRYKNSVA,WASTRES,GQYKRLPLS

Extract of 8 entries:

CDR-L1,CDR-L2,CDR-L3,Kd,detected
TISTSAQQESHNKNSVA,DLNVRGS,QQYDRLPLS,6.3 nM,6 of 6
MISQLYNMGSFAINSVA,QASQRCE,QQYDRLPLL,65 nM,6 of 6
KITQAVNYLSRVMNSVA,DNSTRES,QQYFRLPLS,2.3 nM,6 of 6
KIEQSMLYESRNKNSVA,NASTREV,QQYHRLPLS,560 pM,6 of 6
KVSEFMKGLMMRTDSIA,DNETRGA,QQYDRLPLS,110 nM,1 of 6
QLGQTIWADIMNKKSIA,AEETLID,QQYNRLPLS,5.3 nM,6 of 6
KWSWSVDLESRNDNSVA,DASTRED,QQYHRLPLS,16 nM,6 of 6
KISMLYNYESTNKNSIA,EMTTRES,QHYHRLPLS,16 nM,6 of 6

The measurements come from Li et al. 2023 (doi:10.1038/s41467-023-39022-2) through the FLAb antibody collection.